The numbers were not newly measured in patent US20130338178A1, “SIRTUIN MODULATORS AS INHIBITORS OF CYTOMEGALOVIRUS” (THE TRUSTEES OF PRINCETON UNIVERSITY, priority 2011, published 2013), which cites them from elsewhere.

Molecules are shown by their SMILES.

The target in this series is T1, SIRT1 (Homo sapiens, UniProt Q96EB6).
T1 sequence (Q96EB6 1-747): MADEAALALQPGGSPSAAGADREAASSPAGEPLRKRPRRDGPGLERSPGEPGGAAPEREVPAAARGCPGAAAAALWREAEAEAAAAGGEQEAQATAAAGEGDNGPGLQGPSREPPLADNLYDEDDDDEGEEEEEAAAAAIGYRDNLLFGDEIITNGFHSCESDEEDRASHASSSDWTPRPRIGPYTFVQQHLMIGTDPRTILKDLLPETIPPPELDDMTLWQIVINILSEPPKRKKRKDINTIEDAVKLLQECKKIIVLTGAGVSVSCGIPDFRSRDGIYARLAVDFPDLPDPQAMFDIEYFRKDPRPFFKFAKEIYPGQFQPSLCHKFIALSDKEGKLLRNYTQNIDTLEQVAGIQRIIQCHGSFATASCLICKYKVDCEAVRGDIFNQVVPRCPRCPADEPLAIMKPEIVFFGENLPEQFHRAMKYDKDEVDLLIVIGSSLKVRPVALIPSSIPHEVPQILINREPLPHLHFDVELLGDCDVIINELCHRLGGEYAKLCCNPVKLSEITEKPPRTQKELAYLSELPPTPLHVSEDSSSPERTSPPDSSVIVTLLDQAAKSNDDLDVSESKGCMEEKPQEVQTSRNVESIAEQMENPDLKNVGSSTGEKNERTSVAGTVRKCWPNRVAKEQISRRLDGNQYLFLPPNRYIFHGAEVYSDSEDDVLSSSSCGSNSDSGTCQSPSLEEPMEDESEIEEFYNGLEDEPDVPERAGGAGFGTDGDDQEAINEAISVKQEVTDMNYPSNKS
To be noted: SIRT1 preincubated with NAD+ and compound; means ± SD; cited from earlier work.

For the compound `CCCC(=O)CC(=O)NCCCC[C@H](NC(=O)OCc1ccccc1)C(=O)Nc1ccccc1` [2x], the IC50 was 56 ± 5.3 µM.

In general, IC50 refers to the concentration that gives 50% inhibition.
